Values quoted from earlier work as cited in PMC5742115, “Pharmacophore Modeling and in Silico/in Vitro Screening for Human Cytochrome P450 11B1 and Cytochrome P450 11B2 Inhibitors” (Frontiers in Chemistry, 2017).

Tested on: CYP11B2
Details: reported activity, supplementary Table 1; ref Ulmschneider et al., 2005b; cited from earlier work

SMILES	IC50
N#Cc1ccc2c(c1)CC/C2=C\c1cnc[nH]1 [CHEMBL177921]	35.9 nM
N#Cc1ccc2c(c1)CCC/C2=C/c1cnc[nH]1 [CHEMBL367483]	22.7 nM
